Tests used:
[1] = target: T1, recombinant human TNFα (human, UniProt P01375 77-233); test: cell-based or functional assay
[2] = target: T1, recombinant human TNFα; test: inhibition ELISA: biotinylated human TNFα pre-incubated with infliximab, binding to coated TNFRI-Fc detected with streptavidin-HRP [panels 17-22-B03-sc02 and 17-22-B03-sc08]
[3] = target: T1, recombinant human TNFα; test: inhibition ELISA: biotinylated human TNFα pre-incubated with infliximab, binding to coated TNFRI-Fc detected with streptavidin-HRP [panel 17-22-B03-sc12]

Amino acid sequences for entries named in this document (tags omitted). Residues count along the entry.
UniProt P01375, 77-233 limits assumed: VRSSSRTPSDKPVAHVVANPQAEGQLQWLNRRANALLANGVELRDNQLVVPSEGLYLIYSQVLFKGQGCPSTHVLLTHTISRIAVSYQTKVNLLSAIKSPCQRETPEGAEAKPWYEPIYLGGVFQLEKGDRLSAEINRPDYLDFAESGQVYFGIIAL

B1: infliximab (antibody, V domains shown)
VH: EVKLEESGGGLVQPGGSMKLSCVASGFIFSNHWMNWVRQSPEKGLEWVAEIRSKSINSATHYAESVKGRFTISRDDSKSAVYLQMTDLRTEDTGVYYCSRNYYGSTYDYWGQGTTLTVSS
VL: DILLTQSPAILSVSPGERVSFSCRASQFVGSSIHWYQQRTNGSPRLLIKYASESMSGIPSRFSGSGSGTDFTLSINTVESEDIADYYCQQSHSWPFTFGSGTNLEVKR
- IC50, TNFα-induced apoptosis in L929 fibroblasts (100 pM human TNFα) [1]: 36.2 ng/mL
- IC50 (read off the curve) [2]: ~0.05 µg/mL
- IC50 (read off the curve) [3]: ~0.05 µg/mL

Reference: patent US20200299375A1 (TILLOTTS PHARMA, published 2020)
